Measurements taken from ChEMBL document CHEMBL1136656, “Synthesis and Biological activity of kappa opioid receptor agonists. Part 2: preparation of 3-aryl-2-pyridone analogues generated by solution- and solid-phase parallel synthesis methods” (Bioorg Med Chem Lett, 2003).

The chains behind the UniProt entries cited, without tags or fusion partners. Where a name states a change or a piece, a line headed by the entry shows the natural chain unless it says otherwise.
UniProt P41145: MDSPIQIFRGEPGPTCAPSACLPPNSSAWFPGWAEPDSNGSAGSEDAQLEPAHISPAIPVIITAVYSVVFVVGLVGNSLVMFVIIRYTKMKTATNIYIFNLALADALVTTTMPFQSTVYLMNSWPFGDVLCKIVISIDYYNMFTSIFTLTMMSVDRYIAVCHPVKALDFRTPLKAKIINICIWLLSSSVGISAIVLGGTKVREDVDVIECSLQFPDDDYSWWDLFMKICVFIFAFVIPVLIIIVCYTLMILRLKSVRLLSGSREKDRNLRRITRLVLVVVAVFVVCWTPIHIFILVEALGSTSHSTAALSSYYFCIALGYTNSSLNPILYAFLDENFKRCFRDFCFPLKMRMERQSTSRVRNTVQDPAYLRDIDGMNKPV

Target: Kappa-type opioid receptor (Homo sapiens, UniProt P41145)
Assay: Effective dose for agonistic activity towards human kappa opioid receptor from membranes of HEK293 cells was determined by radiolabeled [35S]GTP-gamma-S, assay
Type: functional, cell membranes

CN(C(=O)Cc1ccccc1)[C@H]1CC[C@@]2(CCCO2)C[C@@H]1N1CCCC1
ED50: 24 nM
